## scFv variants of Ab-14 (light chain) against a SARS-CoV-2 spike peptide

Source: Engelhart et al. 2022 (doi:10.1038/s41597-022-01779-4), MIT Lincoln Laboratory and A-Alpha Bio; data file from the FLAb repository.

The target is the same throughout: PDVDLGDISGINAS, from the HR2 region of SARS-CoV-2 spike.

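The starting antibody came from a phage panning campaign against this peptide. The library (AAYL50) carries one to three amino acid substitutions per variant, with no insertions or deletions. AlphaSeq pools MATa yeast showing the antibodies with MATalpha yeast showing the peptide. Mating (16 h, 30 °C) was followed by selection of diploids and sequencing of their barcodes. The ratio of observed to expected reads was calibrated, replicate by replicate, on BCL2-family standards whose Kd was known from biolayer interferometry. Each pool was mated in three replicate cultures.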

Each scFv is VH, three GGGGS repeats, VL, as in the parent Ab-14, and differs from it in the CDRs of the light chain only.
VH: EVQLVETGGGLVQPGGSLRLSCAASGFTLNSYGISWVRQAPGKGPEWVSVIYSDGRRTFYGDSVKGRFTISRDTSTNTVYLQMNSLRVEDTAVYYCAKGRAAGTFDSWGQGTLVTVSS
VL: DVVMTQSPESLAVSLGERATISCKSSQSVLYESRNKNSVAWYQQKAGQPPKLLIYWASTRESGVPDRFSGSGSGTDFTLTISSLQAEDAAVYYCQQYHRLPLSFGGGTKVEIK

Variants are written as CDR1, CDR2 and CDR3 of the light chain (limits as in the source). Parent: KSSQSVLYESRNKNSVA, WASTRES, QQYHRLPLS.
The read-out is the apparent dissociation constant on a log10 scale (nM): the lower, the stronger.
A mean of the replicates is given; it leaves out those without a signal.
Where no diploid with the target was found in that replicate, the entry reads "nd": below detection, most likely a poor binder, though not proof of it.
Nonspecific signal, from three strains lacking the peptide, appeared in 18% of pairings of library AAYL50, centred on 4.19 (5% of these signals below 2.99); values are not corrected for it. For each scFv, signals with the empty controls are counted beside the result, with their mean in brackets.

CDR-L1 | CDR-L2 | CDR-L3 | log10 Kd (nM) by replicate | mean, log10 nM | empty controls
KSSQSVLYESRNKNSVA | WASTRIS | QQYHRLPLN | 2.59 / 1.60 / 2.38 | 2.19 | 1 of 9 (4.39)
KSSQSVLYDSRNKNSVA | WASTKES | QQYHRYPLS | 2.77 / 2.93 / 2.76 | 2.82 | 0 of 9
KLSQSVLYESRNKNSVA | WASTREI | QQYHRLPLS | -0.35 / 0.03 / -0.21 | -0.18 | 2 of 9 (4.91)
KSSQAFLYESRNKNSVA | SASTRES | QQYHRLPLS | -0.51 / 0.07 / -0.34 | -0.26 | 3 of 9 (5.79)
KSSQSVLYESRHKNSVA | MASCRES | QQYHRLPLS | 0.71 / 0.89 / 0.72 | 0.77 | 0 of 9
KSSQSVLYESRNKNSVA | WASTREL | QQYNRLPLS | 0.71 / 0.85 / 0.76 | 0.77 | 1 of 9 (5.09)
KSSQSVAYESRNKNSVA | WASTRES | QQYDNLPLS | nd / nd / nd | nd | 0 of 9
KSSQSVLTEDRNKNSVA | WASTRES | SQYHRLPLS | 0.91 / 1.02 / 0.99 | 0.97 | 8 of 9 (4.77)
KLSYSVLYESRNKNSVA | WASTRES | QQYHRMPLS | 0.43 / 0.73 / 0.50 | 0.55 | 2 of 9 (5.28)
KSSQSVLYESRNKNSVA | WASTRNS | QQYHKLPLS | 2.91 / 3.26 / 3.81 | 3.33 | 1 of 9 (3.08)
SSDQSALYESRNKNSVA | WASTRES | QQYHRLPLS | 0.72 / 0.94 / 0.91 | 0.86 | 2 of 9 (3.31)
KSSQSVLYESKNKLSVA | WASTRES | QQGHRLPLS | 5.99 / 4.91 / 4.76 | 5.22 | 8 of 9 (4.23)
KSSQIVLYESRNKNSSA | WASTRES | QQYHRLPLS | 2.95 / 2.87 / 3.12 | 2.98 | 3 of 9 (4.98)
KSSDGVLYESRNKNSVA | WASTRES | QQMHRLPLS | 0.36 / 0.63 / 0.68 | 0.56 | 1 of 9 (4.63)
KSSQSVLYESRNKNSVA | WHSTAES | QQYHRLSLS | nd / nd / nd | nd | 0 of 9
KSSGSVLYESRNANSVA | WASTRES | QQYHRLPLS | nd / nd / nd | nd | 0 of 9
SSSQSVLYESRCKNSVA | LASTRES | QQYHRLPLS | nd / nd / nd | nd | 0 of 9
KSMRSVLYESRNKNSVA | WASTREH | QQYHRLPLS | 1.87 / 1.53 / 2.64 | 2.01 | 1 of 9 (3.05)
KSSVSVLYESRNKNSVA | WASTRMS | QQYHRHPLS | 4.10 / 5.58 / 4.40 | 4.69 | 5 of 9 (4.49)
KSSQSVLYESRNKNSVA | WASTRFS | QQDHRLPCS | nd / nd / nd | nd | 2 of 9 (3.75)
KSSQSVLYESRNKNSVA | WHSTRES | QTYHRLPLF | nd / 3.83 / nd | 3.83 | 1 of 9 (3.97)
KSSISVLYESRNKNSVA | WASTRYS | QQYHRDPLS | 1.24 / 1.10 / 1.24 | 1.19 | 1 of 9 (3.86)
KSSQSVLYESRNKNSVA | WASERES | QRYHRLPPS | 1.54 / 2.03 / 1.79 | 1.79 | 6 of 9 (4.10)
KSSQSVLYESRNENSAA | WASTRES | QQYHRQPLS | nd / nd / nd | nd | 0 of 9
KSSQHVLYESRNKNFVA | WASTRES | QFYHRLPLS | 5.54 / 4.13 / 4.53 | 4.73 | 8 of 9 (4.33)
KSSQSVLYESRNKTFVA | WASTRES | QQYSRLPLS | nd / 4.75 / 3.88 | 4.31 | 0 of 9
CSSQSVLYESSNKNSVA | WASTRES | FQYHRLPLS | nd / nd / nd | nd | 0 of 9
KSSQSVFYESRGKNSVA | WASTRES | QQYHRLPLS | nd / 2.20 / nd | 2.20 | 0 of 9
KSSQSNMYESRNKNSVA | WASTRES | QQYHRLPIS | 0.78 / 1.03 / 1.15 | 0.99 | 1 of 9 (2.89)
KSSCSVLYESRNKLSVA | WASTRES | QQYHRLPLS | 2.77 / 2.75 / nd | 2.76 | 1 of 9 (4.42)
KSSQSVLYESRNKNSVA | MASTRHS | QQYHRTPLS | nd / nd / nd | nd | 0 of 9
LSSQSVLYELYNKNSVA | WASTRES | QQYHRLPLS | 1.89 / 1.86 / 1.43 | 1.72 | 0 of 9
KSSQSFLYESRNKNSVA | WASTRES | QQYHYLPMS | nd / nd / nd | nd | 1 of 9 (3.95)

Again, the first 2 entries without any signal:

| CDR-L1 | CDR-L2 | CDR-L3 | log10 Kd (nM) by replicate | mean, log10 nM | empty controls |
|---|---|---|---|---|---|
| KSSQSVAYESRNKNSVA | WASTRES | QQYDNLPLS | nd / nd / nd | nd | 0 of 9 |
| KSSQSVLYESRNKNSVA | WHSTAES | QQYHRLSLS | nd / nd / nd | nd | 0 of 9 |